The values that follow come from patent US5322858A, “N,N'-substituted imidodicarbonimidic diamides derived from hydroxylamines” (Jacobus Pharmaceutical Co. Inc., priority 1992, dated 1994).

In this test the test system is Plasmodium falciparum (Smith strain). The settings on record: for response: text: up to 150 mg/kg for three days; for Primary treatments cleared: animals cleared/treated; for Primary treatments cured: animals cured/treated.

The structures appear in SMILES notation. Read-outs that look alike come from different tables or passages of the source.

The molecule `CC1(C)N=C(N)N=C(N)N1c1ccc(Cl)cc1` [Cycloguanil] gave a response of 0%. Further, under “total 3.0 mg/kg (1.0 daily)”, the Primary treatments cleared is on record as 0/2 and the Primary treatments cured was 0/2. For the setting “total 30.0 mg/kg (10.0 daily)”, the Primary treatments cleared is 0/2 and the Primary treatments cured was 0/2. For the same molecule, where the note is “total 150.0 mg/kg (50.0 daily)”, the Primary treatments cleared was 0/2 and the Primary treatments cured was 0/2.

In turn, `[H]/N=C(\N/C(=N/[H])Nc1ccc(Cl)cc1)NC(C)C` [Proguanil] showed a response of 0%. Besides, where the note is “total 3.0 mg/kg (1.0 daily)”, the Primary treatments cleared was 0/2 and the Primary treatments cured is recorded as 0/2. In addition, under “total 30.0 mg/kg (10.0 daily)”, the Primary treatments cleared is listed as 0/2 and the Primary treatments cured is listed as 0/2. Further, where the note is “total 150.0 mg/kg (50.0 daily)”, the Primary treatments cleared is 0/2 and the Primary treatments cured is recorded as 0/2.
